Values quoted from earlier work, collected in US5922681A, “Endothelin antagonists” (Warner-Lambert Company, priority 1992, dated 1999).

By UniProt entry, the sequences of proteins in these tests, tags left out. Residues count along the entry.
UniProt Q29010, 21-427: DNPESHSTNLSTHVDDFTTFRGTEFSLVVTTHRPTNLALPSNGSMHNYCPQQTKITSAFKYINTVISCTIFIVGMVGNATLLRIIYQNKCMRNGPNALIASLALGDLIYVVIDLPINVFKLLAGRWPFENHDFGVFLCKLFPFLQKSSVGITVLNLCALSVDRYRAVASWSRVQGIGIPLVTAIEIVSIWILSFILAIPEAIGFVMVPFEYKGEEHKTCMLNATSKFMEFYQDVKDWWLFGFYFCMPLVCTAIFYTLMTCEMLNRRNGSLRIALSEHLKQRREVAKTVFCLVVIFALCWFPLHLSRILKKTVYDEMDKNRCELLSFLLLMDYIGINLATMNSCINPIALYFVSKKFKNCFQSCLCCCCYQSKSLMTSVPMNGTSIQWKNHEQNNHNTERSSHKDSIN

Biological target: T1, porcine aortic microsomes (Sus scrofa, UniProt Q29010)
T1 construct: ET-1 to porcine and human aortic microsomes; host or cells: porcine aortic microsomes
Conditions: read-out: IC50, inhibition of specific binding of [125I]ET-1; cited from earlier work

For FR 139317, the IC50 is listed as 0.53 nM.
